Sequences of proteins named here, by UniProt entry; tags and fusion partners are left off. A change or cut given only in a name is not applied to a line headed by its entry.
UniProt P01210: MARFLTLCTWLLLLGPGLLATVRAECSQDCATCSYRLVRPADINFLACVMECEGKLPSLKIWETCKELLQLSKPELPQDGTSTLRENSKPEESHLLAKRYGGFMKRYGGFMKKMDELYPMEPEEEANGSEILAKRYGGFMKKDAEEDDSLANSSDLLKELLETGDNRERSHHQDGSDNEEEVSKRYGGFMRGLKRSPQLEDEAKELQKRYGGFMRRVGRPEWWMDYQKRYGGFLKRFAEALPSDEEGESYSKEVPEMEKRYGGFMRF

According to patent publication US8357375B2, “Process for the preparation and use of a bivalent vaccine against morphine-heroine addiction” (Instituto Nacional de Psiquiatria Ramon de la Fuente Muniz, priority 2004, dated 2013):

System: anti-morphine-heroin serum antibodies
Test: competitive immunoenzymatic ELISA for antibody specificity
Assay type: binding, rat
Settings: competitive antigen, nM-μM range

## leucine-enkephalin (YGGFL; Leu-enkephalin; UniProt P01210 230-234, looked up) [endogenous opioid peptide produced in the CNS of mammals]
  cross-recognition by anti-morphine-heroin serum antibodies: not able to cross-recognize
